Experimental data reported in ChEMBL document CHEMBL5614453, “Study of Chalcogen Aspirin Derivatives with Carbonic Anhydrase Inhibitory Properties for Treating Inflammatory Pain” (ACS Med Chem Lett, 2024).

Target: Carbonic anhydrase 2 (Homo sapiens, UniProt P00918)
Experiment: Inhibition of human CA2 preincubated for 15 mins by phenol red dye based stopped flow CO2 hydration assay

Ki: > 100 µM
Compound: CC(=O)Oc1ccccc1C(=O)O [ASPIRIN]
